Assay results: article PMC4080450, “The pseudo GTPase CENP-M drives human kinetochore assembly” (eLife, 2014)

B1: CENP-H (natural protein, human, UniProt Q9H3R5 1-247, looked up)
chain: MEEQPQMQDADEPADSGGEGRAGGPPQVAGAQAACSEDRMTLLLRLRAQTKQQLLEYKSMVDASEEKTPEQIMQEKQIEAKIEDLENEIEEVKVAFEIKKLALDRMRLSTALKKNLEKISRQSSVLMDNMKHLLELNKLIMKSQQESWDLEEKLLDIRKKRLQLKQASESKLLEIQTEKNKQKIDLDSMENSERIKIIRQNLQMEIKITTVIQHVFQNLILGSKVNWAEDPALKEIVLQLEKNVDMM
notes: human CENP-H, cDNA segment, without any tag; source: Tnao38 insect cells (baculovirus), co-expressed with the other subunits; co-purified, or in lysate for the GST pull-down
B2: CENP-M (of the CENP-HI^57–CKM complex) (natural protein, human, UniProt Q9NSP4 1-180, looked up)
chain: MSVLRPLDKLPGLNTATILLVGTEDALLQQLADSMLKEDCASELKVHLAKSLPLPSSVNRPRIDLIVFVVNLHSKYSLQNTEESLRHVDASFFLGKVCFLATGAGRESHCSIHRHTVVKLAHTYQSPLLYCDLEVEGFRATMAQRLVRVLQICAGHVPGVSALNLLSLLRSSEGPSLEDL
notes: human CENP-M isoform 1 (cDNA segment), 2nd MCS of the CENP-I vector; no tag is named; source: TnAo38 insect cells, co-expressed with CENP-H, CENP-K and CENP-I 57-756, co-purified (Talon, Resource S, Superdex 200)
B3: CENP-K (untagged, of the CENP-HI^57–CKM complex) (natural protein, human, UniProt Q9BS16 1-269, looked up)
chain: MNQEDLDPDSTTDVGDVTNTEEELIRECEEMWKDMEECQNKLSLIGTETLTDSNAQLSLLIMQVKCLTAELSQWQKKTPETIPLTEDVLITLGKEEFQKLRQDLEMVLSTKESKNEKLKEDLEREQRWLDEQQQIMESLNVLHSELKNKVETFSESRIFNELKTKMLNIKEYKEKLLSTLGEFLEDHFPLPDRSVKKKKKNIQESSVNLITLHEMLEILINRLFDVPHDPYVKISDSFWPPYVELLLRNGIALRHPEDPTRIRLEAFHQ
notes: human CENP-K, untagged; source: TnAo38 insect cells, co-expressed with CENP-H, CENP-I 57-756 and CENP-M, co-purified (Talon, Resource S, Superdex 200)

Assays:
[1] = target: T1, CENP-I^57–C (of the CENP-HI^57–CKM complex) (human, UniProt Q92674 57-756); test: SEC; subunits co-expressed in insect cells, complex co-purified by the His tag of one subunit and ion exchange, then SEC on Superdex 200 in 150 mM NaCl; settings: both partners purified
T1 construct: human CENP-I residues 57-756, codon optimised; also called CENP-I 57-756; not shown: His6, N-terminal, cleaved
T1 sequence (looked up): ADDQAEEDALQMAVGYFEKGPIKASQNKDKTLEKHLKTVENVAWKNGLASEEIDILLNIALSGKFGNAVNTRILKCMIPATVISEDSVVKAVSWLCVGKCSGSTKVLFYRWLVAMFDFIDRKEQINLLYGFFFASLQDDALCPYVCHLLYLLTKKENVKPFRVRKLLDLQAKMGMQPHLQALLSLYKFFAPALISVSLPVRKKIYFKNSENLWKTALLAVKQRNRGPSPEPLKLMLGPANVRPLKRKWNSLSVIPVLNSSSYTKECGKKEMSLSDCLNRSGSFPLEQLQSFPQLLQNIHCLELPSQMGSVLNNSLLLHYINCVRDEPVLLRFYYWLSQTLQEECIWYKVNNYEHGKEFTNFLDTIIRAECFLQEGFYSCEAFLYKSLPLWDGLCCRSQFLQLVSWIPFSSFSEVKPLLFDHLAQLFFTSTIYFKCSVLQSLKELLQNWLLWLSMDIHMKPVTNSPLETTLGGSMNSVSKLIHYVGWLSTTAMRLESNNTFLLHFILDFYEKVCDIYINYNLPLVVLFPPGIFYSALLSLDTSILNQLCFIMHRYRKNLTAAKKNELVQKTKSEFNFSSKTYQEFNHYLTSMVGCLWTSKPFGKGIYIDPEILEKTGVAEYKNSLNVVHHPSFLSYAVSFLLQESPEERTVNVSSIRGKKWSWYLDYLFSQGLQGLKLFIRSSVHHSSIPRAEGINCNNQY

[2] = target: T2, CENP-K (of the CENP-H/K complex, His tag cleaved) (human, UniProt Q9BS16 1-269); test: static light scattering; static light scattering analysis of the purified CENP-H/K complex; settings: both partners purified
T2 construct: human CENP-K, cDNA segment; source: Tnao38 insect cells, co-expressed with CENP-H, purified (Ni-NTA, TEV cleavage, Resource Q, Superdex200 SEC); not shown: His6, N-terminal, cleaved
T2 sequence (looked up): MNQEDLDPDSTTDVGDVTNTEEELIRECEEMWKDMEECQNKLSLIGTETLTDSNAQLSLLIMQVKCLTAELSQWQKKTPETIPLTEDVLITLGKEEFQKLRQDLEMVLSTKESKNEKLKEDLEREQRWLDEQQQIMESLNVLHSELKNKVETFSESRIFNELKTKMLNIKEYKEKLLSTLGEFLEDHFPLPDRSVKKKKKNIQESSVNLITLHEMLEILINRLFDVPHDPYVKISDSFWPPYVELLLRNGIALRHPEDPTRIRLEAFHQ

Binder | stoichiometry N [1] | stoichiometry N [2]
B1 | 1 | 1
B2 | 1 | 
B3 | 1 | 
